Values after ≈ are worked out from the molar mass of the structure shown. Bounds are passed on as bounds.

This data set can be described thus: Solubility of analytes and polymer in solvents, dissolution media and water. Type of data set: physicochemical.

In general, solubility refers to the concentration that dissolves in the medium under given conditions. Take `CC1(C)C(/C=C/C=C/C=C/C=C2\N(CCCCS(=O)(=O)O)c3ccc4ccccc4c3C2(C)C)=[N+](CCCCS(=O)(=O)[O-])c2ccc3ccccc3c21` [ICG, Indocyanine green]: the solubility is 46200 µg/mL (≈ 61.4 mM) (DMF, organic solvent or mixture); 62200 µg/mL (≈ 82.6 mM) (DMSO, organic solvent or mixture); below 500 µg/mL (THF, organic solvent or mixture); 30 µg/mL (≈ 0.0398 mM) (acetonitrile, organic solvent or mixture); above 5000 µg/mL (dissolution media); above 5000 µg/mL (water).

The record behind these values is patent US20140107062A1, “COMPOSITIONS AND METHODS FOR TREATING OR PREVENTING DISEASES OF BODY PASSAGEWAYS” (Aravasc Inc., priority 2007, published 2014).
